US6936585B2, “Corticotropin releasing factor 2 receptor agonists” (priority 2002, dated 2005)

Tests used:
[1] = molecular target: T1, CRF1R (Homo sapiens, UniProt P34998); assay: CRF1R agonist activation (EC50 / Emax), called comparative CRF binding; type: cell-based; conditions: for Emax: read-out: CRF1R Emax
T1 sequence (P34998 24-415): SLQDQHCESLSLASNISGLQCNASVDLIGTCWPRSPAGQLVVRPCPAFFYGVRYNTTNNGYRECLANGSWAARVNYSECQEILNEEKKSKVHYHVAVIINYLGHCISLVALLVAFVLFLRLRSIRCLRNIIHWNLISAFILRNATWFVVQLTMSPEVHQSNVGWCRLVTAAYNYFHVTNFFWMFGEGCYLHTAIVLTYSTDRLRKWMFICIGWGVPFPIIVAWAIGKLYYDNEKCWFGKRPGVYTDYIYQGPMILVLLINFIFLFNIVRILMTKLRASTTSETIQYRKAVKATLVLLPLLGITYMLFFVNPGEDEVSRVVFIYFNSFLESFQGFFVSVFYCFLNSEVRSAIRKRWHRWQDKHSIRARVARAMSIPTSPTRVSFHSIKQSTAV
Summary of the method: (§1)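 CRFR-expressing cells + peptide vs vehicle; read-out cAMP (lysate assay) or CRE-linked reporter expression (luciferase, CAT, fluorescent protein, alkaline phosphatase, etc.). Signal compared against vehicle-treated cells.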

[2] = molecular target: T2, CRF2R (Homo sapiens, UniProt Q13324); assay: CRF2R agonist activation (EC50 / Emax), called comparative CRF binding; type: cell-based; conditions: for Emax: read-out: CRF2R Emax
T2 sequence (Q13324 1-411): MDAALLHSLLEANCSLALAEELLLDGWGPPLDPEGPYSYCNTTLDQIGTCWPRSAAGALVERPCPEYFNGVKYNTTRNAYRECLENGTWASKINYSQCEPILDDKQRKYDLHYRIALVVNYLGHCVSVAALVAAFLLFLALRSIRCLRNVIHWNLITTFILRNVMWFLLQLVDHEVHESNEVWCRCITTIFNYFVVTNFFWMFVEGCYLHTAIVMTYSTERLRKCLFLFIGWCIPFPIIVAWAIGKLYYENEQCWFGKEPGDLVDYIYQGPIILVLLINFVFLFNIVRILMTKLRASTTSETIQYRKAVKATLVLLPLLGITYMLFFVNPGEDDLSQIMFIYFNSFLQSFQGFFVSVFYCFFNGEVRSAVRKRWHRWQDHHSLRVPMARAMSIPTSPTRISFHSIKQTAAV
Summary of the method: as §1

Row | Structure (SMILES) | EC50 ([1]; CRF1R EC50) [µM] | Emax [1] [%] | EC50 [2] [µM] | Emax [2] [%]
1 | CC[C@H](C)[C@H](NC(=O)[C@@H](NC(=O)[C@H](C)NC(=O)[C@H](CC(C)C)NC(=O)[C@H](CC(C)C)NC(=O)[C@H](CC(C)C)NC(=O)[C@H](C)NC(=O)[C@H](CC(N)=O)NC(=O)[C@H](CC(N)=O)NC(=O)[C@H](C)NC(=O)[C@H](C)NC(=O)[C@H](CCC(N)=O)NC(=O)[C@H](CCC(N)=O)NC(=O)[C@H](CCCCN)NC(=O)[C@H](CCC(=O)O)NC(=O)[C@H](CCCCN)NC(=O)[C@H](CCC(=O)O)NC(=O)[C@H](CCC(N)=O)NC(=O)[C@H](CCCCN)NC(=O)[C@H](CCC(=O)O)NC(=O)[C@@H](NC(=O)[C@H](CCC(=O)O)NC(=O)[C@@H](NC(=O)[C@@H](NC(=O)[C@H](CCCCN)NC(=O)[C@H](CCCNC(=N)N)NC(=O)[C@H](CC(C)C)NC(=O)[C@H](CC(C)C)NC(=O)[C@H](Cc1ccccc1)NC(=O)[C@H](Cc1ccccc1)NC(=O)[C@@H]1CCCN1C(=O)[C@H](CC(C)C)NC(=O)[C@H](CC(=O)O)NC(=O)[C@@H](NC(=O)[C@H](CO)NC(=O)[C@@H](NC(=O)[C@@H]1CCCN1C(=O)[C@@H]1CCCN1C(=O)CNC(=O)[C@@H]1CCC(=O)N1)[C@@H](C)CC)[C@@H](C)CC)C(C)C)[C@@H](C)CC)[C@@H](C)CC)[C@@H](C)O)C(N)=O [compound 317] | 0.187 | 100 | 0.0093 | 88.3
2 | CC[C@H](C)[C@H](NC(=O)[C@@H](NC(=O)[C@H](C)NC(=O)[C@H](CC(C)C)NC(=O)[C@H](CC(C)C)NC(=O)[C@H](CC(C)C)NC(=O)[C@H](C)NC(=O)[C@H](CC(N)=O)NC(=O)[C@H](CC(N)=O)NC(=O)[C@H](C)NC(=O)[C@H](C)NC(=O)[C@H](CCC(N)=O)NC(=O)[C@H](CCC(N)=O)NC(=O)[C@H](CCCCN)NC(=O)[C@H](CCC(=O)O)NC(=O)[C@H](CCCCN)NC(=O)[C@H](CCC(=O)O)NC(=O)[C@H](CCC(N)=O)NC(=O)[C@H](CCCCN)NC(=O)[C@H](CCC(=O)O)NC(=O)[C@@H](NC(=O)[C@H](CCC(=O)O)NC(=O)[C@@H](NC(=O)[C@H](CCSC)NC(=O)[C@H](CCCCN)NC(=O)[C@H](CCCNC(=N)N)NC(=O)[C@H](CC(C)C)NC(=O)[C@H](CC(C)C)NC(=O)[C@H](Cc1ccc(O)cc1)NC(=O)[C@@H](NC(=O)[C@@H]1CCCN1C(=O)[C@H](CC(C)C)NC(=O)[C@H](CC(=O)O)NC(=O)[C@@H](NC(=O)[C@H](CO)NC(=O)[C@@H](NC(=O)[C@@H]1CCCN1C(=O)[C@@H]1CCCN1C(=O)CNC(=O)[C@@H]1CCC(=O)N1)[C@@H](C)CC)[C@@H](C)CC)[C@@H](C)O)[C@@H](C)CC)[C@@H](C)CC)[C@@H](C)O)C(N)=O [compound 233] |  | 11 |  | 95
3 | CC[C@H](C)[C@H](NC(=O)[C@@H](NC(=O)[C@H](CC(=O)O)NC(=O)[C@H](CC(C)C)NC(=O)[C@H](CC(C)C)NC(=O)[C@H](CC(C)C)NC(=O)[C@H](CCCNC(=N)N)NC(=O)[C@H](CC(N)=O)NC(=O)[C@H](CC(N)=O)NC(=O)[C@H](C)NC(=O)[C@H](C)NC(=O)[C@H](CCC(N)=O)NC(=O)[C@H](CCC(N)=O)NC(=O)[C@H](CCCCN)NC(=O)[C@H](CCC(=O)O)NC(=O)[C@H](CCCCN)NC(=O)[C@H](CCC(=O)O)NC(=O)[C@H](CCC(N)=O)NC(=O)[C@H](CCCCN)NC(=O)[C@H](CCC(=O)O)NC(=O)[C@@H](NC(=O)[C@H](CCC(=O)O)NC(=O)[C@@H](NC(=O)[C@H](CCSC)NC(=O)[C@H](CCCCN)NC(=O)[C@H](CCCNC(=N)N)NC(=O)[C@H](CC(C)C)NC(=O)[C@H](CC(C)C)NC(=O)[C@H](CCC(N)=O)NC(=O)[C@H](Cc1c[nH]cn1)NC(=O)[C@@H]1CCCN1C(=O)[C@H](CC(C)C)NC(=O)[C@H](CC(=O)O)NC(=O)[C@@H](NC(=O)[C@H](CO)NC(=O)[C@@H](NC(=O)[C@@H]1CCCN1C(=O)[C@@H]1CCCN1C(=O)CNC(=O)[C@@H]1CCC(=O)N1)[C@@H](C)CC)[C@@H](C)CC)[C@@H](C)CC)[C@@H](C)CC)[C@@H](C)O)C(N)=O [compound 212] |  | 100 |  | 100
4 | CC[C@H](C)[C@H](NC(=O)[C@@H](NC(=O)[C@H](CC(=O)O)NC(=O)[C@H](CC(C)C)NC(=O)[C@H](CC(C)C)NC(=O)[C@H](CC(C)C)NC(=O)[C@H](CCCNC(=N)N)NC(=O)[C@H](CC(N)=O)NC(=O)[C@H](CC(N)=O)NC(=O)[C@H](C)NC(=O)[C@H](C)NC(=O)[C@H](CCC(N)=O)NC(=O)[C@H](CCC(N)=O)NC(=O)[C@H](CCCCN)NC(=O)[C@H](CCC(=O)O)NC(=O)[C@H](CCCCN)NC(=O)[C@H](CCC(=O)O)NC(=O)[C@H](CCC(N)=O)NC(=O)[C@H](CCCCN)NC(=O)[C@H](CCC(=O)O)NC(=O)[C@@H](NC(=O)[C@H](CCC(=O)O)NC(=O)[C@@H](NC(=O)[C@H](CCSC)NC(=O)[C@H](CCCCN)NC(=O)[C@H](CCCNC(=N)N)NC(=O)[C@H](CC(C)C)NC(=O)[C@H](CC(C)C)NC(=O)[C@H](Cc1ccccc1)NC(=O)[C@@H](NC(=O)[C@@H]1CCCN1C(=O)[C@H](CC(C)C)NC(=O)[C@H](CC(=O)O)NC(=O)[C@@H](NC(=O)[C@H](CO)NC(=O)[C@@H](NC(=O)[C@@H]1CCCN1C(=O)[C@@H]1CCCN1C(=O)CNC(=O)[C@@H]1CCC(=O)N1)[C@@H](C)CC)[C@@H](C)CC)[C@@H](C)O)[C@@H](C)CC)[C@@H](C)CC)[C@@H](C)O)C(N)=O [compound 44] |  | 64 |  | 87
5 | CC[C@H](C)[C@H](NC(=O)[C@@H](NC(=O)[C@H](CC(=O)O)NC(=O)[C@H](CC(C)C)NC(=O)[C@H](CC(C)C)NC(=O)[C@H](CC(C)C)NC(=O)[C@H](CCCNC(=N)N)NC(=O)[C@H](CC(N)=O)NC(=O)[C@H](CC(N)=O)NC(=O)[C@H](C)NC(=O)[C@H](C)NC(=O)[C@H](CCC(N)=O)NC(=O)[C@H](CCC(N)=O)NC(=O)[C@H](CCCCN)NC(=O)[C@H](CCC(=O)O)NC(=O)[C@H](CCCCN)NC(=O)[C@H](CCC(=O)O)NC(=O)[C@H](CCC(N)=O)NC(=O)[C@H](CCCCN)NC(=O)[C@H](CCC(=O)O)NC(=O)[C@@H](NC(=O)[C@H](CCC(=O)O)NC(=O)[C@@H](NC(=O)[C@H](CCSC)NC(=O)[C@H](CCCCN)NC(=O)[C@H](CCCNC(=N)N)NC(=O)[C@H](CC(C)C)NC(=O)[C@H](CC(C)C)NC(=O)[C@H](Cc1c[nH]cn1)NC(=O)[C@H](Cc1ccc(O)cc1)NC(=O)[C@@H]1CCCN1C(=O)[C@H](CC(C)C)NC(=O)[C@H](CC(=O)O)NC(=O)[C@@H](NC(=O)[C@H](CO)NC(=O)[C@@H](NC(=O)[C@@H]1CCCN1C(=O)[C@@H]1CCCN1C(=O)CNC(=O)[C@@H]1CCC(=O)N1)[C@@H](C)CC)[C@@H](C)CC)[C@@H](C)CC)[C@@H](C)CC)[C@@H](C)O)C(N)=O [compound 208] |  | 81 |  | 88
